Experimental data published in publication PMC5093939, “Teicoplanin-based antimicrobial therapy in Staphylococcus aureus bone and joint infection: tolerance, efficacy and experience with subcutaneous administration” (BMC Infectious Diseases, 2016).

Assay: Trough teicoplanin plasmatic levels (Cmin) in the first 14 days of treatment
Settings: 5.7 mg/kg/day after loading dose of 5 injections 12 h apart
Description: Patients diagnosed with staphylococcal BJI were identified by cross-referencing the prospective maintained databases of the regional referral center for BJI and the bacteriology laboratory, which list exhaustively all strains isolated from osteoarticular samples since 2001. Patients with diabetic foot- and decubitus ulcer-related BJI were excluded, as they require a specific management. If patients presented more than one osteoarticular infected site, they were considered as independent events for cohort description and outcome analysis, but pooled for tolerance and pharmacologic evaluation. For each patient, data were collected from medical records, nursing charts and biological software in an anonymous standardized case report form.
A Cmin >15 mg/L was taken as an acceptable therapeutic target. Patients with a Cmin >25 mg/L were considered as overexposure.
For intravenous (IV) administration, each dose was diluted in 100 mL of isotonic saline solution and administrated over a 30-min period. For subcutaneous (SC) injections, each dose was diluted in 50 mL of isotonic saline solution and delivered by a nurse during a 30- to 60-min gravity infusion using a butterfly disposable needle. […]

## teicoplanin
  Patients whose first trough level (Cmin) reached the therapeutic target (15 mg/L): 26%
